Reference: patent US12485299B2, “Antibody-immune agonist conjugate and applications thereof” (GENEQUANTUM HEALTHCARE (SUZHOU) CO., LTD., priority 2021, dated 2025)

What was measured:
[1] = tested on: JIMT1 human breast cancer cells; test: In vivo anti-tumor efficacy, JIMT1 CDX model; conditions: 5 mg/kg intravenously, JIMT1 in SCID Beige mice
Text: 5×10^6 JIMT1 human breast cancer cells were inoculated subcutaneously in the right flank in SCID Beige mice to generate xenograft model.

[2] = tested on: NCI-N87 human gastric cancer cells; test: In vivo anti-tumor efficacy, NCI N87 CDX model (HER2 AIAC); design: species or system SCID Beige mice; conditions: for anti-tumor activity (tumor volume): 5 mg/kg intravenously, NCI-N87 in SCID Beige mice
Method: For in vivo anti-tumor efficacy study, 1×10^7 NCI-N87 human gastric cancer cells were inoculated subcutaneously in the right flank in SCID Beige mice. […] The tumor volume was measured twice weekly with calipers.

[3] = tested on: MC38hHER2 murine colorectal cancer cells overexpressing human HER2; test: In vivo anti-tumor efficacy, MC38 model overexpressing hHER2; conditions: 10 mg/kg intravenously, MC38hHER2 in C57BL/6 mice

Substance | tumor growth [1] | anti-tumor activity (tumor volume) [2] | anti-tumor activity (tumor volume), dose dependence ([2]; 0.5, 1, and 3 mg/kg, separate study) | anti-tumor activity (tumor volume) [3]
AC102-8-1-1 | significantly inhibited | almost cured the tumors at the end | dose-dependent activity | –
Trastuzumab [Ab0001, reference compound] | – | very limited anti-tumor activity | – | no obvious anti-tumor activity
